# In PubChem BioAssay AID588473 (Sanford-Burnham Center for Chemical Genomics, 2011):
# Only a part is listed here, and it is no random draw. Active and inactive are the calls of the source.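 Rule for the calls: active = activation of at least 50%, plus an integration ratio under a set limit after plate pattern correction; inactive = the rest.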
# Tested on: CRF-binding protein / CRF receptor 2 complex (human)
# Experiment: activators of CRF-R2 with CRF-BP – cell-based, HEK293, calcium dye fluorescence, uHTS, primary screen (AID 588473);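 note: plate controls were neutral control wells without compound for no effect and CRF at EC100 for full effect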
# Details: calcium dye fluorescence (FLIPR), at 13.2 µM, stronger effect = higher value, percent of saturating CRF peptide response
row,SMILES,activation
1,CCC(=O)N1C2C3N(C(=O)CC)C1C1N(C(=O)CC)C(C(N1C(=O)CC)N3C(=O)CC)N2C(=O)CC,inactive: -0.91%
2,O=C(OC1CN2CCC1CC2)c1ccccc1 (stereo not given),inactive: 1.08%
3,CC(=O)NC(SC(=S)N(CC(C)C)CC(C)C)C(Cl)(Cl)Cl (stereo not given),inactive: -1.76%
4,Cc1ccc(OP(=O)(Nc2ccccn2)Oc2ccc(C)cc2)cc1,inactive: -0.85%
5,COC(=O)c1cc2c(s1)N=C(c1ccccc1)N(C)P2(=O)N1CCOCC1 (stereo not given),inactive: 0.2%
6,O=c1c2cc([N+](=O)[O-])ccc2[nH]c2c([N+](=O)[O-])cc([N+](=O)[O-])cc12,active: 128%
7,CN(C)C(=O)Oc1noc2ccccc12,inactive: -1.43%
8,CC(NC(=O)COC(=O)C(O)(c1ccccc1)c1ccccc1)c1ccccc1 (stereo not given),inactive: -5.35%
9,Cc1ccccc1OP(=O)(Nc1ccccn1)Oc1ccccc1C,inactive: -2.36%
10,Cc1ccc(NP(=O)(Oc2cccc(C)c2)Oc2cccc(C)c2)nc1,inactive: -0.85%
11,c1ccc(-c2nn[nH]n2)c(-c2nn[nH]n2)c1,inactive: -0.83%
12,CCNC(=S)/N=C(\N)N[N+](=O)[O-],inactive: -2.63%
13,O=C(NC1CCS(=O)(=O)C1)NP(=S)(Oc1ccccc1)Oc1ccccc1 (stereo not given),inactive: -4.93%
14,O=P1(N(CCCl)CCCl)OCCC2CCCCN21 (stereo not given),inactive: 5.26%
15,C[C@H]1OP(=O)(Oc2ccccc2)C[C@@H]2O[C@@H]21 (stereo not given in full),inactive: 0.35%
16,C[C@@H]1C=CCP(=O)(Oc2ccccc2)O1 (stereo not given in full),inactive: -1.21%
17,Cc1ccccc1CN(C)C(=O)COC(=O)C(O)(c1ccccc1)c1ccccc1,inactive: -0.72%
18,COC(=O)C1(C)COP(=O)(NCc2ccccc2)OC1 (stereo not given),inactive: 1.1%
19,CC(=O)c1ccc(N2CC2c2ccncc2)cc1 (stereo not given),inactive: 0.24%
20,N#C/C(=C\c1ccc(N(CCBr)CCBr)cc1)C(N)=O,inactive: -2.41%
21,CC(=O)Nc1ccc(Oc2c([N+](=O)[O-])cc([N+](=O)[O-])cc2[N+](=O)[O-])cc1,inactive: -3.02%
22,CC(=O)Nc1ccc([As](=O)(O)O)c(O)c1,inactive: -0.34%
23,CCOc1ccc(C2=NCC(CBr)S2)cc1 (stereo not given),inactive: 0.22%
24,O=P1(Nc2nc3ccc(Cl)cc3s2)COc2ccccc2O1 (stereo not given),inactive: -1.19%
25,CC(C)(C)C(=O)NC(Sc1ccccc1)C(Cl)(Cl)Cl (stereo not given),inactive: -0.1%

row,SMILES,activation
1,CCc1cc(O)c([N+](=O)[O-])c(C)c1[N+](=O)[O-],inactive: 6.96%
2,CC(C)C(=O)NC(Sc1ccccc1)C(Cl)(Cl)Cl (stereo not given),inactive: 0.66%
3,O=P(Nc1nccs1)(c1ccccc1)c1ccccc1,inactive: 0.71%
4,c1nnnn1CCn1cnnn1,inactive: -1.81%
5,O=[As](O)(c1ccccc1)c1ccc(O)cc1,inactive: -1.44%
6,O=[N+]([O-])c1ccc(O)c(/C=N/Nc2ccc([N+](=O)[O-])cc2[N+](=O)[O-])c1,inactive: 39.7%
7,CC(=O)NC(SC(=S)N(C)C)C(Cl)(Cl)Cl (stereo not given),inactive: 2.24%
8,O=[N+]([O-])c1ncn(CCn2cnc([N+](=O)[O-])n2)n1,inactive: -1.17%
9,O=C(OC1CN2CCC1CC2)c1cccc(Cl)c1 (stereo not given),inactive: -0.6%
10,C(Cc1nn[nH]n1)Cc1nn[nH]n1,inactive: -3.04%
11,Nc1ccc([As](=O)(O)c2ccc([N+](=O)[O-])cc2)cc1,inactive: 0.4%
12,O=P(Nc1ccccn1)(c1ccc(Br)cc1)c1ccc(Br)cc1,inactive: -1.85%
13,CN(C)C1(CNC(=O)c2ccc(Cl)c(S(N)(=O)=O)c2)CCCCC1,inactive: 0.34%
14,COc1ccc(N)c([N+](=O)[O-])c1[N+](=O)[O-],inactive: -1.89%
15,C[C@H]1OP(=O)(Oc2ccccc2)[C@H](O)[C@H](O)[C@H]1N=[N+]=[N-] (stereo not given in full),inactive: -0.13%
16,O=P(Nc1nc2ccccc2s1)(c1ccccc1)c1ccccc1,inactive: -0.24%
17,O=[N+]([O-])c1ncn(CCn2ncnc2[N+](=O)[O-])n1,inactive: 1.53%
18,CC(C)(C)C(=O)NC(Sc1ccncn1)C(Cl)(Cl)Cl (stereo not given),inactive: 0.82%
19,O=C(O)CNc1ccc([As](=O)(O)O)cc1,inactive: -2.6%
20,COC(=O)C1(C)COP(=O)(Nc2ccccc2)OC1 (stereo not given),inactive: 0.94%
21,O=[N+]([O-])c1cccc(NC2=NCC(CBr)S2)c1 (stereo not given),inactive: -1.98%
22,O=P1(N(CCCl)CCCl)OCCCS1 (stereo not given),inactive: -2.05%
23,O=C(Nc1cc([As](=O)(O)O)ccc1O)c1ccccc1,inactive: -0.71%
24,CCN(/C(=N/P(=O)(N1CCOCC1)N1CCOCC1)N1CCOCC1)c1ccc(OC)cc1,inactive: -1.77%
25,C[N+]1=C2C=CC=CC=C2SC12C([N+](=O)[O-])=CC([N+](=O)[O-])=C[C-]2[N+](=O)[O-] (stereo not given),inactive: -4.4%

row,SMILES,activation
1,Nc1ccc([As](=O)(O)c2ccc(N)cc2)cc1,inactive: -1.86%
2,CC1CCN(C(=O)Oc2c(Cl)cc(Cl)c3cccnc23)CC1,inactive: -0.67%
3,c1cc(-c2nn[nH]n2)ccc1-c1nn[nH]n1,inactive: 2.28%
4,CN(C)C(=O)OCCc1n(C)cc[n+]1C,inactive: -1.23%
5,CC(C)c1nc(Nc2ccccc2)n(P(=O)(N(C)C)N(C)C)n1,inactive: 34.2%
6,CC(C)=N/N=C(\N)N[N+](=O)[O-],inactive: -1.53%
7,COc1ccc(C2=NCC(CBr)S2)cc1 (stereo not given),inactive: -4.04%
8,CCc1nc2c(n1)c1c(non1O)c1c2no[n+]1[O-],inactive: 8.26%
9,O=[N+]([O-])c1cc([N+](=O)[O-])c(CCNc2ccccc2)c([N+](=O)[O-])c1,inactive: -0.24%
10,Cc1ccc(NP(=O)(Oc2ccccc2)Oc2ccccc2)nc1,inactive: -0.81%
11,O=[N+]([O-])c1cccc2n[nH]nc12,inactive: -1.76%
12,CC(=O)N1C2C3N(C(C)=O)C1C1N(C(C)=O)C(C(N1C(C)=O)N3C(C)=O)N2C(C)=O,inactive: -0.08%
13,O=C(NC(Sc1ccncn1)C(Cl)(Cl)Cl)c1ccccc1 (stereo not given),inactive: -0.48%
14,Oc1ccccc1CNc1ccccn1,inactive: 0%
15,Nc1cc(N)c2nonc2c1[N+](=O)[O-],inactive: -2.08%
16,CC(C)CC(=O)NC(Sc1ccc(Cl)cc1)C(Cl)(Cl)Cl (stereo not given),inactive: -2.78%
17,Cc1ccc(N/C(=N/P(=O)(N2CCOCC2)N2CCOCC2)N2CCOCC2)cc1,inactive: 8.52%
18,CN(C(=O)Cc1ccc(Cl)c(Cl)c1)[C@H]1CCCC[C@H]1N1CCCC1,inactive: 1.25%
19,NC(=O)c1cc([N+](=O)[O-])cc([N+](=O)[O-])c1N,inactive: -1.66%
20,CN1CCCC(OC(=O)C(c2ccccc2)c2ccccc2)C1 (stereo not given),inactive: 4.04%
21,Clc1ccc(Cl)c(NC2=NCC(CBr)S2)c1 (stereo not given),inactive: 0.57%
22,Cc1ccc(OP(=O)(Nc2nccs2)Oc2ccc(C)cc2)cc1,inactive: 0.37%
23,COc1ccccc1OP(=O)(Nc1ccc(C)cn1)Oc1ccccc1OC,inactive: -0.07%
24,Nc1cccc2ccc([As](=O)(O)O)cc12,inactive: 0.56%
25,CCN(N=Nc1nonc1N)c1nonc1N,inactive: 0.07%

row,SMILES,activation
1,O=P(Nc1nc2ccc(Cl)cc2s1)(c1ccccc1)c1ccccc1,inactive: 0.2%
2,CN(C)P(=O)(N(C)C)n1c(Nc2ccccc2)nnc1-c1ccccc1,inactive: 16.4%
3,CCCC1OP(N)(=O)OCC1CC (stereo not given),inactive: 0.3%
4,CC(=O)Nc1ccc([As](=O)(O)O)cc1,inactive: -1.58%
5,O=C(O)c1ccccc1[As](=O)(O)O,inactive: 2.22%
6,Cc1ccc(NP(=O)(Oc2ccccc2F)Oc2ccccc2F)nc1,inactive: -1.44%
7,CN(C(=O)Cc1ccc(Cl)c(Cl)c1)[C@H]1CCCC[C@@H]1N1CCCC1,inactive: 0.07%
8,Cc1cc(SC(NC(=O)c2ccc(F)cc2)C(Cl)(Cl)Cl)ncn1 (stereo not given),inactive: 0.65%
9,CCOP(=O)(Nc1ccccc1)OCC,inactive: -0.67%
10,ClCCSc1nnc(-c2cccnc2)o1,inactive: -0.24%
11,COC(=O)C1(C)COP(=O)(N2CCCCCC2)OC1 (stereo not given),inactive: 0.23%
12,CC(C)c1ccc(OP(=O)(Nc2ccccn2)Oc2ccccc2F)cc1 (stereo not given),inactive: 1.31%
13,O=[N+]([O-])c1cc([N+](=O)[O-])c(-c2ccn[nH]2)s1,inactive: -0.28%
14,CC(C)NC(=O)NP(=O)(Oc1ccccc1)Oc1ccccc1,inactive: -2.13%
15,CCN(CC)C(=S)SC(NC=O)C(Cl)(Cl)Cl (stereo not given),inactive: -0.45%
16,O=C(OC1CN2CCC1CC2)c1cccc2[nH]cnc12 (stereo not given),inactive: -0.83%
17,O=[N+]([O-])c1ccc(-c2cc([N+](=O)[O-])c(O)c([N+](=O)[O-])c2)cc1,inactive: -1.85%
18,COc1cc(C(=O)NCC2(N3CCOCC3)CCCCC2)ccc1OCC(C)C,inactive: -0.43%
19,O=[As](O)(c1ccc(O)cc1)c1ccccc1O,inactive: 0.54%
20,C[As](=O)(O)c1cccc(C(=O)O)c1,inactive: 1.53%
21,CC(Cc1ccc(O)cc1)NCC(O)c1cc(O)cc(O)c1 (stereo not given),inactive: -0.09%
22,Cc1ccc(OP(=O)(Nc2ccc([N+](=O)[O-])cn2)Oc2ccc(C)cc2)cc1,inactive: 0.32%
23,Cc1ccc2nc3c(c(C)c2c1)CC(C(Cl)Cl)S3 (stereo not given),inactive: -0.08%
24,O=[N+]([O-])c1cc(Oc2ccc([N+](=O)[O-])cc2C(F)(F)F)cc([N+](=O)[O-])c1,inactive: 4.31%
25,COc1ccc(N/C(=N/P(=O)(N2CCOCC2)N2CCOCC2)N2CCOCC2)cc1,inactive: -0.97%
